Rango release inh: qHTS Assay for Inhibitors of RanGTP induced Rango (Ran-regulated importin-beta cargo) - Importin beta complex dissociation; Snurportin-1 (Homo sapiens) + GTP-binding nuclear protein Ran (Homo sapiens) + Importin …; Biochemical FRET Rango-importin beta, RanGTP-induced dissociation; Potency, µM (doses to about 46.1 µM); actives 0.071% (n = 340,000); AID 540253, 2011; calls by dose curve; also: nearly all actives have a fitted effect of over 45% in size
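FRET read at 45 min, room temperature: inhibitors block the CFP/YFP signal rise when RanGTP (0.6 uM Ran, 2 mM GTP, 0.2 uM RCC1) frees Rango (0.1 uM) from importin beta (0.25 uM). Pre-read after 5 min compound exposure flags interference.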
Rango complex inh: qHTS Assay for Inhibitors of Rango (Ran-regulated importin-beta cargo) - Importin beta complex formation. Importin subunit beta-1 (Homo sapiens), Q14974. Rango CFP/YFP FRET sensor + importin beta, 45 min. Potency, µM (top dose mostly 92.2 µM). actives 0.031% (n = 340,000); calls by dose curve; also: nearly all actives have a fitted effect of over 15% in size
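FRET biosensor (snurportin 1 IBB flanked by EYFP and cerulean), 50 nM, with compound 5 min, then 0.125 microM importin beta in PBS, 1 mM DTT, 0.02% Tween-20, 0.1% BSA. CFP/YFP ratio read after 45 min at room temperature; pre-read flags interference.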
PI5P4K alpha inh: qHTS for Inhibitors of phosphatidylinositol 5-phosphate 4-kinase (PI5P4K); max response, %; AID 652105, 2013; PI5P4Kalpha enzyme, ADP-Glo luminescence, 60 min; hits give low values; actives 1.2% (n = 330,000); Phosphatidylinositol 5-phosphate 4-kinase type-2 alpha (Homo sapiens), P48426; active = max response of -50% or lower; inconclusive = between -30% and -50%; inactive = -30% or higher; also: value at the top dose of about 77 µM
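Quantitative HTS of the MLSMR library against PI5P4Kalpha with substrate. ATP added last at 5 microM final; room temperature, 60 minutes. Remaining ATP depleted, ADP converted and read as luminescence.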
VDR inhibitor: Inhibitors of the vitamin D receptor (VDR): qHTS | VDR-SRC2-3 peptide fluorescence polarization, 2 h | actives 0.93% (n = 400,000) | AID 504847, 2011 | Potency, µM, hits mostly inhibitors | Vitamin D3 receptor (Homo sapiens), P11473
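After 23 nl compound addition and a short centrifugation, plates sat for 2 hours at ambient temperature; polarization of fluorescence then indicated loss of VDR binding to peptide SRC2-3.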
PLK1 PBD inh: qHTS for Inhibitors of PLK1-PDB (polo-like kinase 1 - polo-box domain): Primary Screen; Serine/threonine-protein kinase PLK1 (Homo sapiens), P53350; Plk1 PBD binding of FITC phosphopeptide, fluorescence polarization; Potency, µM, actives largely listed as inhibitors; actives 2.8% (n = 360,000); also: series mostly up to about 57 µM; nearly all actives have a fitted effect of over 65% in size
GCN5L2 inh: qHTS Assay for Inhibitors of GCN5L2; Histone acetyltransferase KAT2A (Homo sapiens), Q92830; GCN5L2 HAT assay, ThioGlo1 CoA-SH fluorescence; Potency, µM (titrated, usually from 58.9 µM), hits mostly inhibitors; actives 0.21% (n = 390,000)
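qHTS, 1536-well. 20nM enzyme, pH 7.5 HEPES/EDTA/Tween-20 buffer; 15 min compound preinc., RT. Start: 75uM H3(1-25), 70uM AcCoA, 50uM ThioGlo1. Read Ex340/Em540 at t=0 (autofluorescence flag) and t=20 min.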
Numbers stand for hits; . = inactive; ? = inconclusive; / = not tested or not shown; [ ] = dose if it differs, or a comment. Only some compounds are listed: those with a hit (about 3.6% of all), similar ones and a draw of the others. Unless noted, calls follow the shape of the dose curve; as a rule, active = well fitted curve in the direction sought with a large enough effect; inconclusive = small, poorly fitted or top-dose-only effect, or another doubt; inactive = no such curve, though single readings can be large; an effect the other way counts as inactive or inconclusive.

The chains behind the UniProt entries cited, without tags or fusion partners.
Importin subunit beta-1 (Homo sapiens), Q14974, UniProt Q14974, whole entry, looked up: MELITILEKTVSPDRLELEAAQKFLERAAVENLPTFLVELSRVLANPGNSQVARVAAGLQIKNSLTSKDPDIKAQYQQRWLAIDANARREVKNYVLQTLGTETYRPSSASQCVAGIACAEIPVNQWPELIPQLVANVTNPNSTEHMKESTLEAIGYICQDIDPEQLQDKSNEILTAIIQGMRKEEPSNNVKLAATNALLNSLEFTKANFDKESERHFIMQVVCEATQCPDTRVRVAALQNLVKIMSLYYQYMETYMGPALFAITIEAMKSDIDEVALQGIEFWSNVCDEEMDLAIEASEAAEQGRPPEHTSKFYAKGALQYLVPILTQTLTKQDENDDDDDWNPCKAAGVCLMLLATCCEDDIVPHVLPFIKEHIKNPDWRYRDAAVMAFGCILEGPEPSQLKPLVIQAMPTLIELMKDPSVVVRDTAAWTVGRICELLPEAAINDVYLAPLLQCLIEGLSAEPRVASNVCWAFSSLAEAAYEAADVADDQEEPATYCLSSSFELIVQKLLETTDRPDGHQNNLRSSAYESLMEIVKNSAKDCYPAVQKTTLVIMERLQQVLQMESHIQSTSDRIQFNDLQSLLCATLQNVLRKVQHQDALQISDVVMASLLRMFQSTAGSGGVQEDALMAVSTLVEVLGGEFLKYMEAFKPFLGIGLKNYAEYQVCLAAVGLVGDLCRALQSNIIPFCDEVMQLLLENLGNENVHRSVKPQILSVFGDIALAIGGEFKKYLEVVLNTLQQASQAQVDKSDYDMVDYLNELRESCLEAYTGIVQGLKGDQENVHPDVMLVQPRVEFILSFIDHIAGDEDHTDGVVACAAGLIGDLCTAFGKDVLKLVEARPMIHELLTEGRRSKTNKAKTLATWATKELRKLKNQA
Serine/threonine-protein kinase PLK1 (Homo sapiens), P53350, UniProt P53350, whole entry, looked up: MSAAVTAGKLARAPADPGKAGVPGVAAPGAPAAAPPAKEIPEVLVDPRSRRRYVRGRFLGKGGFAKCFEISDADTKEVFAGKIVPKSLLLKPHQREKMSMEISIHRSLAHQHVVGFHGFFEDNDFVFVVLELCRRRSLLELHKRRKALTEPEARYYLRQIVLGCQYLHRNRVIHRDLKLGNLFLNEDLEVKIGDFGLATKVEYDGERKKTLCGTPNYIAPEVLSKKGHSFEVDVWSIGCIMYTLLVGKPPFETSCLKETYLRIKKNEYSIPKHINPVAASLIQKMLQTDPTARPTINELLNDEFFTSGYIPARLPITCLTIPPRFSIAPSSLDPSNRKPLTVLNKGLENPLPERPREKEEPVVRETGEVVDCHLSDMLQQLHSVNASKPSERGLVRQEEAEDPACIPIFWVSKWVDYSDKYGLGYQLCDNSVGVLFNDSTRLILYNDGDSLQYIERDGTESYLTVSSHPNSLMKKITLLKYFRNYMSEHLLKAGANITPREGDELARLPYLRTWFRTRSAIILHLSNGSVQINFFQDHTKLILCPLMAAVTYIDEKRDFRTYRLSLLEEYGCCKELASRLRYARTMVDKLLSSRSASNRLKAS
Histone acetyltransferase KAT2A (Homo sapiens), Q92830, UniProt Q92830, whole entry, looked up: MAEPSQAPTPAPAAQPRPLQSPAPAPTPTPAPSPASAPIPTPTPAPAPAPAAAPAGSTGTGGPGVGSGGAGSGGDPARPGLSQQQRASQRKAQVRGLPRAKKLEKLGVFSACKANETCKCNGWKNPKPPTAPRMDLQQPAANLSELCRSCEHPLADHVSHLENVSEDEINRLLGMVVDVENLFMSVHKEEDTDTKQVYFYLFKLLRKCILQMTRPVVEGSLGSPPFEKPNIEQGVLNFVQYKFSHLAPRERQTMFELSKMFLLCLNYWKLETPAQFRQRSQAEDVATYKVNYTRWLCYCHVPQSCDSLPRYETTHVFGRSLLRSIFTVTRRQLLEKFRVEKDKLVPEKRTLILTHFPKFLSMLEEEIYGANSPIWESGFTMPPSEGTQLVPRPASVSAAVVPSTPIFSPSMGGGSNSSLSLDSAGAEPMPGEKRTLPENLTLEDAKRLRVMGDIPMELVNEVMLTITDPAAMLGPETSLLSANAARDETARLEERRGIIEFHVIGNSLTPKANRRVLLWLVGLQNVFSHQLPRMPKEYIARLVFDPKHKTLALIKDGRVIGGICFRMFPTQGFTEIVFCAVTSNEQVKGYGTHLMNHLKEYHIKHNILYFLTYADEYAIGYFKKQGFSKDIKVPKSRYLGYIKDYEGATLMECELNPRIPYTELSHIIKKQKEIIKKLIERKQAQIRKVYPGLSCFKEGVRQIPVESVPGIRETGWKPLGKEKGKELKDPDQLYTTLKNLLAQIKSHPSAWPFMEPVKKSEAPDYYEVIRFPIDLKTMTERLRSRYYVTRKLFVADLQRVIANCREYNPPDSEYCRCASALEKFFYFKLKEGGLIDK

SMILES | Rango release inh | Rango complex inh | PI5P4K alpha inh | VDR inhibitor | PLK1 PBD inh | GCN5L2 inh
CCOC(=O)CCP(=O)(O)C(O)c1ccccc1 (stereo not drawn) | . | . | . | . | 24µM | .
CCCc1nnc(NC(=O)CCCN2C(=O)c3ccccc3C2=O)s1 | . | . | . | . | 27µM | .
Cc1ccc(NC(=O)CCN2C(=O)c3cccc4cccc(c34)C2=O)cc1 | . | . | . | . | . | .
Cc1ccc(NC(=O)CCCN2C(=O)c3cccc4cccc(c34)C2=O)cc1 | . | . | . | . | 27µM | .
CCCCc1nnc(NC(=O)CN2C(=O)c3ccccc3C2=O)s1 | . | . | . | . | . | .
CC(=O)OCOC(=O)CN(CC(=O)OCOC(C)=O)c1ccccc1OCCOc1ccccc1N(CC(=O)OCOC(C)=O)CC(=O)OCOC(C)=O | / | / | / | . | / | .
COc1ccc(-c2nc3scc(CCNS(=O)(=O)c4ccc5c(c4)OCCO5)n3n2)cc1 | / | / | / | . | / | .
CC#CCCC(=O)N1C=Cc2ccccc2C1C#N (stereo not drawn) | . | . | . | . | 12µM | .
Fc1ccc(-c2csc(-c3nc(-c4ccc(Br)s4)cs3)n2)cc1 | / | / | / | . | / | .
CN1CCc2c(sc(/N=C/c3cccs3)c2C(N)=O)C1 | ? | ? | / | 32µM | . | .
CN1CCc2c(sc(/N=C/c3ccco3)c2C(N)=O)C1 | ? | ? | / | ? | . | .
C=CC(=O)N1C/C(=C/c2ccc(F)cc2)C(=O)/C(=C\c2ccc(F)cc2)C1 | . | . | . | 10µM | ? | /
CN1C2CCC1/C(=C\c1ccc(F)cc1)C(=O)/C2=C/c1ccc(F)cc1 | . | . | . | ? | . | .
O=C(c1ccc(S(=O)(=O)Cc2cc(F)ccc2F)c([N+](=O)[O-])c1)N1CCOCC1 | / | / | . | / | 27µM | /
O=C(c1ccc(S(=O)(=O)Cc2ccccc2F)c([N+](=O)[O-])c1)N1CCCCCC1 | . | . | . | . | . | .
Cc1cc(C)cc(OCc2cc(=O)n3cc(C)sc3n2)c1 | / | / | / | . | / | .
CSc1nc(-c2ccccc2)nc2c1COC(C)(C)C2 | . | . | . | . | 30µM | .
CC1(C)OC(=O)N(CC(=O)Nc2ccccc2)C1(C)O (stereo not drawn) | . | . | . | . | 27µM | .
O=C(O)CC/C(=C\c1ccc(N2CCCC2)c([N+](=O)[O-])c1)c1nc2ccccc2s1 | . | ? | . | ? | 34µM | .
CC(C)C(C(=O)NCC1CCCO1)N(Cc1ccco1)C(=O)CNS(=O)(=O)c1ccccc1 (stereo not drawn) | . | . | . | . | . | .
CCCC(C(=O)NCC1CCCO1)N(Cc1ccco1)C(=O)CNS(=O)(=O)c1ccc(F)cc1 (stereo not drawn) | . | . | . | . | 15µM | .
CCOC(=O)C(=Cc1ccc(Br)cc1)C(=O)OCC | . | . | . | 10µM | 17µM | .
Cc1cc(C)cc(-n2c(SCC(=O)Nc3ccccc3F)nc3c(oc4ccccc43)c2=O)c1 | / | / | / | . | / | .
Cc1cc(C(=O)N/N=C2\CC(=O)c3ccccc32)c(C)n1-c1ccc(F)cc1 | . | . | -64 | . | . | .
CC(C)CC(=O)Nc1nc2nc(-c3ccccc3)cc(=O)n2[nH]1 | / | / | / | . | / | .
SMILES | Rango release inh | Rango complex inh | PI5P4K alpha inh | VDR inhibitor | PLK1 PBD inh | GCN5L2 inh
Cc1ccc(CNC(C)(C)CO)cc1 | . | . | . | . | . | .
CC(C)(CO)NCc1ccc(Br)cc1 | . | . | ? | 28µM | 19µM | .
COc1ccc([C@]23Cc4cc(C#N)ccc4C(O2)c2c(c4ccc(OC)cc4oc2=O)O3)cc1 | / | / | / | / | / | .[12.7 µM]
CN(CCCc1cnc[nH]1)C(=S)NCCCN(Cc1ccc(Cl)cc1)c1ccc(Br)cn1 | / | / | / | . | / | /
CC1(C)CC(=O)C(C(=O)/C=C/c2ccco2)C(=O)C1 | . | . | ? | ? | 9.5µM | .
CC1(C)CC(=O)C(C(=O)/C=C/NCCc2ccccc2)C(=O)C1 | . | . | . | . | . | .
Cc1cccc(C)c1OCCn1c(C2CC(=O)N(Cc3ccc(F)cc3)C2)nc2ccccc21 (stereo not drawn) | / | / | / | . | / | .
CCOC(=O)c1c(N)sc2c1CCC1C(=O)N(C3CCCCC3)C(=O)C21 (stereo not drawn) | ? | ? | . | . | 19µM | .
CCOC(=O)c1c(N)sc2c1CCC(CC)C2 (stereo not drawn) | . | . | . | . | ? | .
COC1=CC(=O)C(C(=O)c2ccccc2)=CC1=O | / | / | / | 32µM | / | .
COc1ccc(C(=O)c2ccccc2)cc1 | . | . | . | . | . | .
Oc1cc(Nc2ccncc2)cc2cccnc12 | ? | 41µM | / | . | / | .
Cc1ccc(-n2cc(C(=O)OCc3ccc(Cl)cc3)c3ccccc3c2=O)cc1 | / | / | / | . | / | .
CC(C)CCCC(C)CCCC(C)CCCC(C)C(=O)O (stereo not drawn) | / | / | / | ? | / | 11µM
O=C(O)c1cc([N+](=O)[O-])ccc1NCc1ccccc1Cl | . | . | . | . | 24µM | .
COc1ccc(-n2c(=O)c3c(c4cc(OC)ccc4n3C)n(Cc3cc(C)ccc3C)c2=O)cc1 | / | / | / | . | / | .
CNc1nc(Cl)c(SC)c(NCc2cccc(OC)c2)n1 | . | . | . | ? | 11µM | ?
COc1cc(CN2CCc3c([nH]c4ccccc34)C2)cc(OC)c1 | . | . | . | 50µM | 8.4µM | .
COc1ccccc1CN1CCc2c([nH]c3ccccc23)C1 | . | . | . | . | . | .
CSc1ccc(CCNC(=O)c2ccc(-n3c(C)cc4c3CCCC4)cc2)cc1 | / | / | / | . | / | .
Cn1c(N)c(C(=O)COC(=O)CC(NC(N)=O)c2ccc(Cl)cc2)c(=O)n(C)c1=O (stereo not drawn) | . | . | . | . | . | .
